How the values were obtained:
[1] = system: Rabbit #1 polyclonal antibody (Rapa-42-DVS-KLH immunogen); experiment: Inhibition ELISA of rabbit #1 polyclonal serum; type: binding; details: Rapa antigen coated ELISA plate
Protocol: (§1) Inhibition ELISA Protocol
(§2) 1. Use Falcon® Pro-bind™ inununoplates.
(§3) 2. Dilute coating antigen to 1 μg/mL in carbonate-bicarbonate buffer.
(§4) Add 100 μL per well and incubate overnight at 4° C.
(§5) 3. On the same day prepare inhibiting antigen tubes. Aliquot antibodies into glass test tubes. Prepare appropriate antigen concentration in ethanol and add to aliquoted antibody at 10 μL ethanol solution/250 μL antibody.
(§6) Vortex tubes and incubate overnight at 4° C.
(§7) 4. Shake out wells and wash 3× with 200 μL PBS/0.05% TWEEN™ (polyoxyethylene-sorbitol) (v/v) per well.
(§8) 5. Add 200 μL blocking buffer per well (PBS/2% BSA (w/v)).
(§9) Incubate 60 min at room temperature.
(§10) 7. Transfer contents of inhibition tubes to antigen-coated plate, 100 μL per well. Incubate 60 min at 37° C.
(§11) 9. […] Add 100 μL per well and incubate at 37° C. for 60 min.
(§12) 11. […] Add 100 μL per well and incubate in the dark at room temperature. Absorbance can be read at 405 nm at approximately 15-min intervals.

[2] = system: Chicken polyclonal antibody (IgY, Rapa-42-DVS-KLH immunogen); experiment: Inhibition ELISA of chicken IgY prep; type: binding; details: Rapa antigen coated ELISA plate
Protocol: as §1, §2, §3, §4, §5, §6, §7, §8, §9, §10, §11, §12

[3] = system: Mouse polyclonal antibody Rapa-DVS #7; experiment: Inhibition ELISA of mouse polyclonal serum Rapa-DVS #7; type: binding
Protocol: as §1, §2, §3, §4, §5, §6, §7, §8, §9, §10, §11, §12

[4] = system: Mouse polyclonal antibody Rapa-DVS #9; experiment: Inhibition ELISA of mouse polyclonal serum Rapa-DVS #9; type: binding
Protocol: as §1, §2, §3, §4, §5, §6, §7, §8, §9, §10, §11, §12

[5] = system: MoAb R-1-1; experiment: Inhibition ELISA of MoAb R-1-1; type: binding, mouse; details: tissue culture supernatant
Protocol: as §1, §2, §3, §4, §5, §6, §7, §8, §9, §10, §11, §12
(§13) To further characterize the reactivity of monoclonal antibodies from various clones, inhibition ELISA were performed.

[6] = system: MoAb R-1-5; experiment: Inhibition ELISA of MoAb R-1-5; type: binding, mouse; details: tissue culture supernatant
Protocol: as §1, §2, §3, §4, §5, §6, §7, §8, §9, §10, §11, §12, §13

[7] = system: MoAb R-2-2; experiment: Inhibition ELISA of MoAb R-2-2; type: binding, mouse; details: tissue culture supernatant
Protocol: as §1, §2, §3, §4, §5, §6, §7, §8, §9, §10, §11, §12, §13

[8] = system: MoAb R-3-1; experiment: Inhibition ELISA of MoAb R-3-1; type: binding, mouse; details: tissue culture supernatant
Protocol: as §1, §2, §3, §4, §5, §6, §7, §8, §9, §10, §11, §12, §13

[9] = system: MoAb R-4-1; experiment: Inhibition ELISA of MoAb R-4-1; type: binding, mouse; details: tissue culture supernatant
Protocol: as §1, §2, §3, §4, §5, §6, §7, §8, §9, §10, §11, §12

[10] = system: MoAb R-4-7; experiment: Inhibition ELISA of MoAb R-4-7; type: binding, mouse; details: tissue culture supernatant
Protocol: as §1, §2, §3, §4, §5, §6, §7, §8, §9, §10, §11, §12

[11] = system: MoAb R-5-3; experiment: Inhibition ELISA of MoAb R-5-3; type: binding, mouse; details: tissue culture supernatant
Protocol: as §1, §2, §3, §4, §5, §6, §7, §8, §9, §10, §11, §12

[12] = system: Mouse polyclonal antibody Rapa-27 #12 (Rapa-27-ox-DVS-KLH immunogen); experiment: Inhibition ELISA of mouse polyclonal serum Rapa-27 #12; details: binding to Rapa-27-HSA
Protocol: as §1, §2, §3, §4, §5, §6, §7, §8, §9, §10, §11, §12

[13] = system: MoAb R-6-2; experiment: Inhibition ELISA of MoAb R-6-2; type: binding, mouse
Protocol: as §1, §2, §3, §4, §5, §6, §7, §8, §9, §10, §11, §12

[14] = system: MoAb R-6-3; experiment: Inhibition ELISA of MoAb R-6-3; type: binding, mouse
Protocol: as §1, §2, §3, §4, §5, §6, §7, §8, §9, §10, §11, §12

Substance: human serum albumin [HSA]
- Percent inhibition of Rabbit #1 polyclonal antibody [1]: 0%
- Percent inhibition of Chicken polyclonal antibody [2]: 0%
- Percent inhibition of mouse polyclonal antibody Rapa-DVS #7 [3]: 6.8%
- Percent inhibition of mouse polyclonal antibody Rapa-DVS #9 [4]: 10.4%
- Percent inhibition of MoAb R-1-1 [5]: 2%
- Percent inhibition of MoAb R-1-5 [6]: 10%
- Percent inhibition of MoAb R-2-2 [7]: 16%
- Percent inhibition of MoAb R-3-1 [8]: 0%
- Percent inhibition of MoAb R-4-1 [9]: 2%
- Percent inhibition of MoAb R-4-7 [10]: 6%
- Percent inhibition of MoAb R-5-3 [11]: 13%
- Percent inhibition of mouse polyclonal antibody Rapa-27 #12 [12]: 0%
- Percent inhibition of MoAb R-6-2 [13]: 0%
- Percent inhibition of MoAb R-6-3 [14]: 0%

Source: US6709873B1, “Method for production of antibodies to specific sites of rapamycin” (Isodiagnostika Inc., priority 1997, dated 2004)
